Laboratory results taken from patent US11661439B2, “Peptide hydrogels and use thereof” (The United States of America, as represented by the …, priority 2017, dated 2023).

Details: subcutaneous, days 1, 11 and 30, H&E

Ac-VEVSVSVEV^DPPTEVSVEVEV-NH2 [AcVES3]
lymphocytic immune response: minimal (at most)
